Measured values taken from ChEMBL document CHEMBL4665835, “Synthesis and pharmacological evaluation of 11-(1,6-dimethyl-1,2,3,6-tetrahydropyridin-4-yl)-5H-dibenzo[b,e][1,4]diazepines with clozapine-like receptor occupancy at dopamine D/D receptor” (Bioorg Med Chem Lett, 2020).

Protein sequences, listed by entry. Tags and fused reporters are not part of them.
UniProt P14416, whole entry: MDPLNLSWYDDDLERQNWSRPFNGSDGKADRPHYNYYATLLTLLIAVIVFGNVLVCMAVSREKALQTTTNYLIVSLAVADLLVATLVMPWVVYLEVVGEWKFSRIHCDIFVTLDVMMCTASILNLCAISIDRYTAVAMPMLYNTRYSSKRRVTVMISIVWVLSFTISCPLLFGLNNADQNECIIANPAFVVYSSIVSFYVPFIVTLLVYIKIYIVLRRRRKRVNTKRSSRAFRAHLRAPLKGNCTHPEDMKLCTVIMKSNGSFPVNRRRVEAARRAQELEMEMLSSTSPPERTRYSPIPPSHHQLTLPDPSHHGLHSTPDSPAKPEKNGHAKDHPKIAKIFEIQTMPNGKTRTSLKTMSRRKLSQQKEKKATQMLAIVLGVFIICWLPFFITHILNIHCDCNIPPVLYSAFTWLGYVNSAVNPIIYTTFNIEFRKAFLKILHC

Target: D(2) dopamine receptor (Homo sapiens, UniProt P14416)

With `CN1CCc2cc(Cl)c(O)cc2[C@H]2c3ccccc3CC[C@@H]21` [ECOPIPAM] as the molecule, how does the pKi read?
Its pKi is 5.91.

pKi: −log10 of the molar value.
